Laboratory results: patent US11999716B2, “WDR5 inhibitors and modulators” (priority 2018, dated 2024)

What was measured:
WDR5 = WDR5 (Homo sapiens, UniProt P61964); conditions: read-out: Ki for Inhibition of WDR5 by TR-FRET assay; WDR5-His tag (Δ23, residues 24-334) 2 nM; 10mer-Thr-FAM probe 150 nM; Tb-anti-HIS 1 nM; 60 min, room temperature
[1] = test system: MV4:11 human cancer cell lines; test: Cellular viability / anti-proliferative activity, CellTiter-Glo, 5 day protocol; assay type: cell-based; conditions: read-out: GI50 on cellular proliferation of MV4:11 human cancer cell lines, MV4:11 cells, 5 day incubation, mean of minimum two replicates

Row | Structure (SMILES) | Ki (WDR5) [nM] | GI50 [1] [nM]
1 | CCc1nccn1Cc1cc2c(c(-c3cn(CC)nc3C(F)(F)F)c1)CCN([C@@H](C)c1cc(OC)ccn1)C2=O | < 0.05 | < 50
2 | Cc1ccnc(CN2CCc3c(cc(Cn4ccnc4C)cc3-c3cn(C)nc3C(F)(F)F)C2=O)c1 | < 0.05 | 67
